# From US20060079453A1, “Hla binding peptides and their uses” (priority 2002, published 2006)
# Key:
# Assay in all cases: biochemical
# Assay type in all cases: binding
# HLA-DR DRB1*0701 (DR7) = HLA-DR DRB1*0701 (DR7) (Homo sapiens, UniProt P01903+P01911, A100R/A102G/A103Q/D57E/D86V/E43K/F76Y/K127E/L162R/M171V/P40G/Q125H/Q99D/R33Q/R42Y/R54Q/S133A/S66F/T210M/V115G/Y107V/Y59L/Y89S); conditions: DRB1 *0701
# HLA-B*1801 = HLA-B*1801 (Homo sapiens, UniProt P01889, A329T/A93T/A95T/C349S/D201E/D54G/D98Y/E176V/E187T/E204Q/E69T/K202T/Q94N/R155S/R180L/S121R/V306I/Y140S/Y195H/Y33H/Y91S); conditions: B*1801
# HLA-B*4501 = HLA-B*4501 (Homo sapiens, UniProt P01889, A329T/A65T/A93T/A95T/C349S/D138N/D201E/D98Y/E176V/E187L/E204Q/E69K/H137Y/K202T/L119W/N87E/Q56L/Q94N/R155S/R180D/S121R/S35A/S48T/V127L/V306I/V36M/W191S/Y140L/Y33H/Y91S); conditions: B*4501
# HLA-B*4402 = HLA-B*4402 (Homo sapiens, UniProt P01889, A223V/A65T/A93T/A95T/D201E/D98Y/E176V/E187L/E204Q/E69K/G107R/H137Y/K202T/L105A/L119I/N104T/N87E/Q56L/Q94N/R106L/R155S/R180D/S101N/S121R/S35A/S48T/T118I/V36M/W191S/Y140D/Y91S); conditions: B*4402
# HLA-B*4002 = HLA-B*4002 (Homo sapiens, UniProt P01889, A65T/A93T/A95T/D138N/D201E/D98Y/E176V/E204Q/E69K/K202T/N87E/Q56L/Q94N/R180L/S48T/Y33H/Y91S); conditions: B*4002
# HLA-B*4403 = HLA-B*4403 (Homo sapiens, UniProt P01889, A223V/A65T/A93T/A95T/D201E/D98Y/E176V/E187L/E204Q/E69K/G107R/H137Y/K202T/L105A/L119I/N104T/N87E/Q56L/Q94N/R106L/R155S/R180L/S101N/S121R/S35A/S48T/T118I/V36M/W191S/Y140D/Y91S); conditions: B*4403
# HLA-B*4001 = HLA-B*4001 (Homo sapiens, UniProt P01889, A65T/A93T/A95T/D138N/D98Y/E176V/E69K/N87E/Q56L/Q94N/R180L/S121R/S35A/S48T/T167S/V36M/W171L/Y33H/Y91S); conditions: B*4001
SMILES,IC50 (HLA-DR DRB1*0701 (DR7)),other results
CC(=O)N[C@@H](C)C(=O)N[C@@H](CO)C(=O)N[C@@H](CCC(N)=O)C(=O)N[C@@H](CCCCN)C(=O)N[C@@H](CCCNC(=N)N)C(=O)N1CCC[C@H]1C(=O)N[C@@H](CO)C(=O)N[C@@H](CCC(N)=O)C(=O)N[C@@H](CCCNC(=N)N)C(=O)N[C@@H](Cc1c[nH]cn1)C(=O)NCC(=O)N[C@@H](CO)C(=O)N[C@@H](CCCCN)C(=O)N[C@@H](Cc1ccc(O)cc1)C(=O)N[C@@H](CC(C)C)C(=O)N[C@@H](C)C(=O)N[C@H](C(=O)N[C@@H](C)C(=O)N[C@@H](CO)C(=O)N[C@H](C(=O)O)[C@@H](C)O)[C@@H](C)O,2360 nM,–
CC[C@H](C)[C@H](NC(=O)[C@H](Cc1ccc(O)cc1)NC(=O)[C@@H]1CCCN1C(=O)[C@H](CC(=O)O)NC(=O)[C@H](CCC(=O)O)NC(=O)[C@H](CC(C)C)NC(=O)[C@@H](NC(=O)[C@H](C)NC(=O)[C@@H](N)CCC(=O)O)C(C)C)C(=O)N[C@@H](CC(C)C)C(=O)N[C@@H](CC(C)C)C(=O)N[C@H](C(=O)N[C@@H](CO)C(=O)N[C@@H](CO)C(=O)N[C@@H](CCCCN)C(=O)O)C(C)C,933 nM,–
CC(C)C[C@H](NC(=O)[C@H](Cc1ccccc1)NC(=O)[C@H](CC(N)=O)NC(=O)[C@H](CO)NC(=O)[C@@H](N)CCCCN)C(=O)N[C@@H](CC(N)=O)C(=O)N[C@@H](CS)C(=O)N[C@@H](Cc1ccc(O)cc1)C(=O)N[C@H](C(=O)N[C@@H](CO)C(=O)NCC(=O)N[C@@H](Cc1ccccc1)C(=O)N[C@@H](Cc1c[nH]cn1)C(=O)N1CCC[C@H]1C(=O)N[C@@H](CO)C(=O)N[C@@H](CC(=O)O)C(=O)O)C(C)C,8330 nM,–
CC[C@H](C)[C@H](NC(=O)[C@@H](N)CC(C)C)C(=O)N[C@@H](CCSC)C(=O)N[C@@H](Cc1ccc(O)cc1)C(=O)N[C@@H](CO)C(=O)N[C@@H](C)C(=O)N[C@@H](Cc1c[nH]cn1)C(=O)N[C@@H](CC(=O)O)C(=O)N[C@H](C(=O)N[C@H](C(=O)N[C@H](C(=O)N[C@@H](CO)C(=O)NCC(=O)N[C@@H](CC(C)C)C(=O)N[C@@H](CCC(N)=O)C(=O)O)C(C)C)[C@@H](C)O)[C@@H](C)O,731 nM,–
CSCC[C@H](NC(=O)[C@H](CCC(=O)O)NC(=O)[C@@H](NC(=O)[C@H](Cc1ccccc1)NC(=O)[C@H](Cc1ccc(O)cc1)NC(=O)[C@H](CCC(=O)O)NC(=O)CNC(=O)[C@H](CCCCN)NC(=O)[C@H](CCC(=O)O)NC(=O)[C@H](Cc1ccccc1)NC(=O)[C@H](Cc1ccc(O)cc1)NC(=O)[C@H](CC(C)C)NC(=O)[C@H](CCC(=O)O)NC(=O)[C@@H](NC(=O)[C@@H](N)CC(C)C)[C@@H](C)O)C(C)C)C(=O)O,13100 nM,–
CC[C@H](C)[C@H](NC(=O)CNC(=O)[C@H](Cc1ccccc1)NC(=O)[C@@H](NC(=O)[C@H](CC(C)C)NC(=O)[C@H](CCC(N)=O)NC(=O)[C@H](CC(C)C)NC(=O)[C@H](Cc1ccc(O)cc1)NC(=O)[C@H](CCC(=O)O)NC(=O)[C@@H](N)CO)C(C)C)C(=O)N[C@@H](CCC(=O)O)C(=O)N[C@H](C(=O)N[C@H](C(=O)O)C(C)C)C(C)C,–,IC50 (HLA-B*1801): 9.7 nM; IC50 (HLA-B*4501): 6.6 nM; IC50 (HLA-B*4402): 144 nM; IC50 (HLA-B*4002): 4.5 nM; IC50 (HLA-B*4403): 5.4 nM; IC50 (HLA-B*4001): 23 nM
CSCC[C@H](NC(=O)[C@H](CC(C)C)NC(=O)[C@H](CCC(N)=O)NC(=O)[C@H](CC(=O)O)NC(=O)[C@H](CC(N)=O)NC(=O)[C@H](CCSC)NC(=O)[C@H](CCSC)NC(=O)[C@H](CCCNC(=N)N)NC(=O)[C@H](CC(C)C)NC(=O)[C@@H](N)C(C)C)C(=O)N[C@@H](Cc1ccccc1)C(=O)N[C@@H](CC(C)C)C(=O)N[C@@H](CCC(=O)O)C(=O)N[C@@H](CCCNC(=N)N)C(=O)N[C@@H](C)C(=O)O,17300 nM,–
CC(C)C[C@H](NC(=O)CNC(=O)[C@H](Cc1ccccc1)NC(=O)[C@H](CCC(=O)O)NC(=O)[C@H](CCCCN)NC(=O)[C@@H](N)Cc1c[nH]c2ccccc12)C(=O)N[C@@H](CC(=O)O)C(=O)N[C@@H](CO)C(=O)N[C@H](C(=O)N[C@@H](CCC(=O)O)C(=O)N[C@@H](CC(C)C)C(=O)N[C@@H](C)C(=O)N[C@@H](Cc1c[nH]cn1)C(=O)N[C@@H](Cc1ccc(O)cc1)C(=O)N[C@@H](CC(=O)O)C(=O)O)C(C)C,3510 nM,–
